## Ab-14 light chain CDR variants: yeast mating affinities

The measurements come from Li et al. 2023 (doi:10.1038/s41467-023-39022-2) through the FLAb antibody collection.

Target peptide (SARS-CoV-2 spike, HR2 region): PDVDLGDISGINAS

Each scFv is VH, a 15-residue (Gly4Ser)3 linker, VL, as in the parent Ab-14, and differs from it in the CDRs of the light chain only.
VH: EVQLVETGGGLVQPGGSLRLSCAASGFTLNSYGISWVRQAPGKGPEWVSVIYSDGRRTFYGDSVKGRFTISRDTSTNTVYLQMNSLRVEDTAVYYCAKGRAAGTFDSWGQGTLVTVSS
VL: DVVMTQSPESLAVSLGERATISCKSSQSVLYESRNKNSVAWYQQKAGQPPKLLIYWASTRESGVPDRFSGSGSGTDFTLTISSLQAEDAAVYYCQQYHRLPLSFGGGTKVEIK

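Phage display of a naive human antibody library on the peptide gave the parent. These sequences belong to a second round, designed from the earlier measurements on random variants of the parent. Group labels follow the data file (Ctrl: baseline library sampled from a position-specific scoring matrix, with some repeated check sequences; GP: Gaussian process model; HC: hill climbing; Gen: genetic algorithm; a sequence that several methods proposed may carry one label only). Affinity was read by AlphaSeq, a pooled yeast mating assay with surface-displayed partners. After mating in shaken culture at 30 °C for 16 h, diploids were selected and their barcode pairs sequenced. The ratio of observed to expected reads was calibrated, replicate by replicate, on BCL2-family standards whose Kd was known from biolayer interferometry. Mating was done six times.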

Variants are written as CDR1, CDR2 and CDR3 of the light chain (limits as in the source). Parent: KSSQSVLYESRNKNSVA, WASTRES, QQYHRLPLS.
Numbers give log10(Kd / nM), so 0 is 1 nM and 3 is 1 µM. Smaller is tighter.
An entry "nd" has no value in the source: the pair was not observed among the diploids in that replicate. This suggests poor binding but is not conclusive.

The variant KISQSVLYESRNKNSVA / WASTRES / QQYHVLPLS [Ctrl] gave 1.00, 0.83, 0.96, 0.86, 0.50, 0.77 (controls 0 of 18).
The variant KSSQSVLYESRNKNSVA / QASMRES / QQYHRLPLS [Ctrl] gave 2.60, 1.29, 1.61, 1.56, 1.87, 1.49 (controls 2 of 18).
The variant KSSQSVLQESRNKNSVA / DASTRES / QQYHRLPLS [Ctrl+GP_HC] gave 0.71, 1.01, 1.21, 0.83, 1.18, 1.56; 0.19, 0.34, 0.35, 0.06, 0.12, 0.28 (controls 3 of 36).
The variant KSSQSVLYESRNKNAVA / QASTRES / QQYHRLPLS [Ctrl] gave 0.58, 0.58, 0.55, 0.26, 0.42, 0.49 (controls 1 of 18).
The variant KLSQSVLNESNNKNSVA / WASTRES / QQYHRLHLS [Ctrl] gave nd, nd, nd, nd, nd, nd (controls 2 of 18).
The variant KSSQEVLGESRNKNSVA / WATERES / QQYHRLPLS [Ctrl] gave 2.26, 2.68, 3.55, 3.07, 2.00, 3.39 (controls 0 of 18).
The variant KLSPNVCYYSRDKNPVA / WASTRES / QQYHRLPLF [Ctrl] gave nd, nd, nd, nd, nd, nd (controls 1 of 18).
The variant KSSQSVLYESRNKNSVA / YASTREE / QQYHRLPLS [Ctrl] gave 1.89, nd, nd, 3.24, 3.33, 3.14 (controls 0 of 18).
The variant KSSQSVVYESRNKNSVA / EASERES / QQYHRLPLS [Ctrl] gave nd, nd, nd, 1.75, nd, nd (controls 0 of 18).
The variant KSSQSVLYESTNKNSVA / SASTCES / QQYHRLPLS [Ctrl] gave 1.44, 1.78, 1.08, 0.78, 1.31, 1.45 (controls 1 of 18).
The variant KVSQSVLMEFRNKNSVA / WASTRPS / QQYHRLLLS [Ctrl] gave nd, nd, nd, 3.01, 1.75, nd (controls 0 of 18).
The variant KISQSVLYESRNKNSVA / NASTRES / QQYHRLPLS [Ctrl+GP_Gen] gave 0.07, 0.17, 0.08, -0.01, 0.15, 0.13; -0.23, -0.13, -0.24, -0.07, -0.11, -0.14 (controls 2 of 36).
The variant KSSQHVLYESRNDNSVA / NASTRES / QQYHRLPLS [Ctrl] gave 0.58, 0.35, 0.26, 0.02, 0.19, 0.25 (controls 0 of 18).
The variant KSSESVLVESRNKNSVA / WASTRES / QQLHRIPES [Ctrl] gave nd, nd, nd, nd, nd, nd (controls 0 of 18).
The variant KMSDSVLYESRNKNSVA / AASTRES / QQYARLPLS [Ctrl] gave -0.04, -0.08, -0.42, -0.32, -0.17, 0.00 (controls 3 of 18).
The variant KSSQSVLYESRNHNSVA / WASEREV / QQYHRLPLS [Ctrl] gave 1.17, 0.72, 1.47, 2.37, 1.06, 2.55 (controls 0 of 18).
The variant KISQSVLYESRNKNSVA / WASTRES / QQYHRLPLS [Ctrl] gave 1.15, 0.85, 0.99, 0.55, 0.33, 1.16 (controls 1 of 18).
The variant KCSQSVGYESRNKNFVA / HASTRES / QQYHRLPLS [Ctrl] gave 1.09, 1.75, 0.88, 1.05, 0.95, 1.34 (controls 0 of 18).
The variant KSSQSVLYEERNKNSVA / FHSTRES / QQYHRLPLS [Ctrl] gave nd, nd, nd, nd, nd, nd (controls 0 of 18).
The variant KSSQSVLYEMRNKNSVA / AASTRES / QQYARLPLS [Ctrl] gave 0.21, 0.24, 0.07, -0.15, -0.07, 0.18 (controls 4 of 18).
The variant KISQSVLYESRNKNSVA / AANTRES / QQYKRLPLS [Ctrl] gave 0.57, 0.80, 0.77, 0.68, 0.40, 0.33 (controls 0 of 18).
The variant KSSQSVRYESRNKNSVA / WDSNRES / QQYHRLPLS [Ctrl] gave nd, nd, nd, nd, nd, nd (controls 0 of 18).
The variant KSSQSVLYESRNKNSVA / NASTRES / QQYSRLKLS [Ctrl] gave nd, nd, nd, nd, nd, nd (controls 0 of 18).
The variant KSSQSALYESENKNSVA / WASTRES / QQYHRLPLS [Ctrl] gave nd, nd, nd, nd, nd, nd (controls 0 of 18).
The variant KSSQSVRGESREKNSVA / WASTRES / NQYHRLPLS [Ctrl] gave nd, nd, nd, nd, nd, nd (controls 1 of 18).
The variant KISQSVLYESRNKNSVA / WAQTRQS / QCYHRLPLS [Ctrl] gave nd, 2.77, nd, 2.26, nd, 3.61 (controls 0 of 18).
The variant KSSQSVLYESNNKNSVA / SAITREI / QQYHRLPLS [Ctrl] gave 1.43, 1.17, 0.54, 0.40, 0.71, 0.91 (controls 0 of 18).
The variant KSSQSVLDESFNKNSVA / WASTRED / QQYHRLPLS [Ctrl] gave 1.24, 1.42, 1.07, 0.63, 0.95, 1.27 (controls 2 of 18).
The variant KSSQSELYESRNKNSVA / NARTRES / QQYHRLPLS [Ctrl] gave 0.16, 0.53, 0.54, 0.81, 0.42, 0.74 (controls 1 of 18).
The variant KSAESVLYESRNKNSVA / WASTRES / QQYHRLPLS [Ctrl] gave nd, nd, 1.39, 2.01, nd, nd (controls 0 of 18).
The variant KSSQSVLDEGRNKNSVA / WASTRES / QQYHRLPLS [Ctrl] gave 1.47, 0.51, 0.62, 0.15, 1.17, 1.50 (controls 1 of 18).
The variant KSSQSVLVESRNKNSVA / HASTRTS / QQYHRLPLS [Ctrl] gave 1.21, 1.46, 1.25, 1.52, 1.54, 1.55 (controls 1 of 18).
The variant KSSQSVLYESRNKNSVA / EASTRES / QQYARLPLS [Ctrl] gave 0.26, 0.21, -0.04, 0.03, 0.06, 0.30 (controls 4 of 18).
The variant KSSQSVLYESYNKNSVA / WASTRES / QQYHRLPLS [Ctrl] gave 1.41, 2.60, nd, 3.14, nd, 2.05 (controls 1 of 18).
The variant KLSQSVLYESRNKNSVA / QASTRED / QQYHYLPLS [Ctrl] gave 0.10, 0.06, -0.17, -0.26, -0.29, -0.01 (controls 0 of 18).
The variant KSSQSVLYESRAKNSVA / MGSTRES / QQYHRLPLS [Ctrl] gave 1.04, 1.36, 0.79, 1.50, 0.74, 0.73 (controls 0 of 18).
The variant KSSQSVLYESRNKNGVA / WASTRES / AQYHRLPLS [Ctrl] gave 1.33, 0.65, 1.00, 0.54, 0.82, 0.69 (controls 2 of 18).
The variant KISQSVLYESRNKNSVA / WASTREH / QQYHLLPLS [Ctrl] gave 0.63, 0.76, 0.99, 0.89, 0.78, 1.03 (controls 0 of 18).
The variant KSSYSWLYESRNKNSVA / WASTRES / QQYHRLPLS [Ctrl] gave nd, nd, nd, 1.32, nd, 1.48 (controls 0 of 18).
The variant SSSQSLLYESMEKNSVA / WASTRES / QQYHRLPLS [Ctrl] gave nd, nd, nd, nd, nd, nd (controls 1 of 18).
The variant KSSQSVFYESRNKNSVA / WASEREN / QQPHRLPLS [Ctrl] gave nd, nd, nd, nd, nd, nd (controls 0 of 18).
The variant KSPQSVLDESRNKNSVA / WASTRES / QQYHRLPLS [Ctrl] gave 1.04, nd, nd, 0.64, 1.49, 0.64 (controls 0 of 18).
The variant KSSVSVLYESTNKNSVA / CASTPES / EQCHRLPWF [Ctrl] gave nd, nd, 2.24, nd, nd, nd (controls 0 of 18).
The variant KSSQFVLYESRNKNSVA / WASTRSS / QVYHRLPLS [Ctrl] gave nd, nd, nd, nd, nd, nd (controls 0 of 18).

A selection of 5 entries from above:

CDR-L1	CDR-L2	CDR-L3	group	log10 Kd (nM) by replicate	signal with controls
KLSPNVCYYSRDKNPVA	WASTRES	QQYHRLPLF	Ctrl	nd, nd, nd, nd, nd, nd	1 of 18
KSSYSWLYESRNKNSVA	WASTRES	QQYHRLPLS	Ctrl	nd, nd, nd, 1.32, nd, 1.48	0 of 18
KSSQSVLQESRNKNSVA	DASTRES	QQYHRLPLS	Ctrl+GP_HC	0.71, 1.01, 1.21, 0.83, 1.18, 1.56; 0.19, 0.34, 0.35, 0.06, 0.12, 0.28	3 of 36
KSSQSVLYESNNKNSVA	SAITREI	QQYHRLPLS	Ctrl	1.43, 1.17, 0.54, 0.40, 0.71, 0.91	0 of 18
KSSQSVLYEMRNKNSVA	AASTRES	QQYARLPLS	Ctrl	0.21, 0.24, 0.07, -0.15, -0.07, 0.18	4 of 18

Where one sequence has several entries in the source, the replicates are listed entry by entry, parted by semicolons.
Empty control strains, which show no peptide, gave a signal in 4% of pairings with all light chain designs; the median was 2.64 and 95% of these signals were weaker than 1.59. No background was subtracted. Also given: how often the same scFv was detected with the empty control strains.
Values of this round are not directly comparable with the first-round values of the same sequences.
The authors averaged sequences with at least three values out of six and counted those with two or fewer as poor binders.